Source: ChEMBL document CHEMBL4513141, “CO-ADD screening of NIH (USA) - Clinical Collection” (2021)
Shown are results outside the selection of strong results, which stands elsewhere. Results with a measured potency or affinity are listed apart.

Each molecule was assayed on Pseudomonas aeruginosa. Settings: Concentration 20 uM; ASSAY_TEST Inhibition of Bacterial Growth; detection method Absorption (OD600); MEDIA CAMHB; plate type 384well; NBS; CORNING #3640; time 18 hr.
For `COc1ccc(C[C@H](C)NC[C@@H](O)c2ccc(O)c(NC=O)c2)cc1.O.O.O=C(O)/C=C/C(=O)O`, the Inhibition was 12.67%. `O.O=P1(N(CCCl)CCCl)NCCCO1` (configuration not stated) [CYCLOPHOSPHAMIDE] gave an Inhibition of 4.42%.
